Amino acid sequences for entries named in this document (tags omitted). Residues count along the entry.
UniProt P20138, 18-259 S128N: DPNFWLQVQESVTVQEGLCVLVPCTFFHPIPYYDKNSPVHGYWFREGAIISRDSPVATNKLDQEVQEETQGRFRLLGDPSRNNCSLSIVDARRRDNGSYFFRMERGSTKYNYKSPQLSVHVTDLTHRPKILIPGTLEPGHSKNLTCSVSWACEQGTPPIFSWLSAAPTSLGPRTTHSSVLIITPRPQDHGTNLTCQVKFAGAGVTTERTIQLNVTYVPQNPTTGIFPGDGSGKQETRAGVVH

According to patent US20220380459A1:

Molecular target: human CD33 S128N (human) (UniProt P20138)
Test: SPR, Fab captured, 37C

Kd: 0.809 nM
koff: 0.00059 s⁻¹
kon: 662000 M⁻¹ s⁻¹
B1: ADI-11802 Fab (Fab, V domains shown)
VH: QVQLVQSGAEVKKPGASVKVSCKASGYTFSGYYMHWVRQAPGQGLEWMGMINPYGGSTRYAQKFQGRVTMTRDTSTSTVYMELSSLRSEDTAVYYCAREAADGFVGERYFDLWGRGTLVTVSS
VL: DIVMTQSPLSLPVTPGEPASISCRSSQSLLYSNGYNYLDWYLQKPGQSPQLLIYLGSNRASGVPDRFSGSGSGTDFTLKISRVEAEDVGVYYCMQDVALPITFGGGTKVEIK
